Laboratory results: publication PMC3769975 (ChemMedChem, 2012)

Biological target: recombinant neuraminidase N1 (A/California/04/09) (Influenza A virus (A/California/04/2009(H1N1)), UniProt C3W5S3)
Assay: Fluorescent neuraminidase assay
Format: biochemical, influenza A/California/04/09

## CC(=O)N[C@H]1[C@H]([C@H](O)[C@H](O)CO)OC(C(=O)O)=C[C@@H]1N=C(N)N [zanamivir, reference compound]
  EC50: 3.4 nM
